# Yeast mating assay B: variants of the scFv Ab-14

Antigen: PDVDLGDISGINAS, a 14-residue peptide of the SARS-CoV-2 spike HR2 region.

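The starting antibody came from a phage panning campaign against this peptide. This is the validation round: designs drawn from the data on random variants, tested in the same kind of assay. Their group label is 14L_En_Gibbs (En: ensemble of fine-tuned language models; Gibbs: Gibbs sampling). The assay is AlphaSeq: two haploid yeast populations carry antibody and antigen on their surface. Mating (16 h, 30 °C) was followed by selection of diploids and sequencing of their barcodes. Scores were corrected for input abundance and mapped to Kd with protein pairs of known affinity run in the same pool. Mating was done six times.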

Each scFv is VH, three GGGGS repeats, VL, as in the parent Ab-14, and differs from it in the CDRs of the light chain only.
VH: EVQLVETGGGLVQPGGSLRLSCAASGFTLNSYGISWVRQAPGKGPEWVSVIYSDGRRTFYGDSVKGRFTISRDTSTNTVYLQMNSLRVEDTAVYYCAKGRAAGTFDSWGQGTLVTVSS
VL: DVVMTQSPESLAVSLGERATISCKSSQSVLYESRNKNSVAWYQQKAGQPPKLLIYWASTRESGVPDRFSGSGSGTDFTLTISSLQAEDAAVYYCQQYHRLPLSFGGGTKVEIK

Variants are written as CDR1, CDR2 and CDR3 of the light chain (limits as in the source). Parent: KSSQSVLYESRNKNSVA, WASTRES, QQYHRLPLS.
Numbers give log10(Kd / nM), so 0 is 1 nM and 3 is 1 µM. Smaller is tighter.
The mean shown is taken over the replicates in which the pair was detected.
"ND" marks a missing value. The strain was present, yet no cells mated with the target were sequenced in that replicate, which points to weak or no binding.

| CDR-L1 | CDR-L2 | CDR-L3 | replicates, log10 nM | mean, log10 nM | empty controls |
|---|---|---|---|---|---|
| HMSDSIEKMASHARNIA | DETTTAM | QQYYRLPLS | 0.19 / 0.02 / 0.11 / -0.17 / 0.21 / 0.22 | 0.10 | 0/18 |
| KIHMGWEMGSRTNDNIA | EADLRFS | QQYNRLPLF | 0.88 / 1.12 / 0.80 / 0.33 / 1.09 / 0.66 | 0.81 | 1/18 (1.24) |
| NLMSGGSELSVWSRNIA | DANIRES | QQYFRLPLL | 0.18 / 0.24 / 0.63 / 0.11 / 0.35 / 0.38 | 0.32 | 1/18 (2.50) |
| RLSTEHTGYGEMMNNIA | QGSTKQF | QQYDRLPLH | 1.09 / 0.64 / 0.99 / 1.06 / 0.62 / 0.86 | 0.88 | 0/18 |
| RLLAQNLINMDKLNSIA | EQSVHYQ | QQYGRLPLT | 0.96 / 1.38 / ND / 0.70 / 1.62 / 2.66 | 1.47 | 0/18 |
| NVHALDNISSEFQNSIA | DQECRDA | QQYFRLPLS | 1.37 / 1.91 / 1.27 / 2.24 / 1.96 / 1.94 | 1.78 | 3/18 (2.74) |
| HFAYPWQSGYVSKQNVA | NASTVMT | QHYNRLPLS | 1.32 / 1.88 / 1.03 / 1.10 / 1.14 / 1.30 | 1.29 | 1/18 (3.31) |
| QLNEYKHETMAKTQNIA | DMTIREP | QQYAHLPLA | -0.05 / -0.15 / -0.04 / -0.24 / -0.13 / 0.13 | -0.08 | 0/18 |
| HMNHEYLEYSNYENNIA | HGSQRLY | QQYSHLPLS | 0.34 / 0.33 / 0.28 / 0.11 / 0.30 / 0.50 | 0.31 | 0/18 |
| SVFMELAMEKNSYRNIA | DASMRLA | QQYVRLPLG | 0.41 / -0.11 / 0.35 / -0.68 / -0.06 / 0.27 | 0.03 | 0/18 |
| KFAGGLDYNTAHKSAIA | HADIRNI | QQYFRLPLD | 1.48 / 1.68 / 1.12 / 1.28 / 1.48 / 1.54 | 1.43 | 0/18 |
| KLTHLTFVLDRQKYSIA | DSERKAE | QQYNRLPLT | 1.63 / 1.69 / 1.60 / 2.03 / 1.41 / 1.90 | 1.71 | 2/18 (3.00) |
| KFDFQMPELNYQDNSVA | GMTVSIE | QHYFRLPLT | ND / ND / ND / ND / ND / 2.19 | 2.19 | 0/18 |
| HLYFPWQSGQDSMQNVA | NDSTLMT | QHYNRLPLS | ND / ND / ND / 2.60 / ND / ND | 2.60 | 1/18 (2.98) |
| SLQYLPEESLIGASAIA | DVNIAVM | QQYSRLPLA | 1.29 / 0.83 / 1.67 / 1.24 / 0.93 / 0.51 | 1.08 | 0/18 |
| QLQLQPQTGLNAQHSIA | DVSEKDM | QQYARLPLH | 0.37 / 0.58 / 0.53 / 0.23 / 0.49 / 0.86 | 0.51 | 0/18 |
| QLEVFPLQAGSTYNAIA | DASHSTP | QQYSRLPLV | 0.79 / 0.87 / 0.78 / 0.67 / 0.67 / 1.01 | 0.80 | 0/18 |
| HVEHDWLLSNATMNAVA | NGATLAD | QQYGRLPLA | 0.73 / 1.19 / 1.36 / 0.81 / 1.22 / 1.08 | 1.07 | 1/18 (2.06) |
| MITAAPNAYGGNRSNIA | DKEISVN | QQYHHLPLS | 0.88 / 1.38 / 1.63 / 1.11 / 0.72 / 1.36 | 1.18 | 3/18 (3.29) |
| NFSMELEDMGVKTKSIA | ENQLTEY | QQYARLPLM | 1.25 / 1.62 / 1.31 / 2.00 / 1.04 / 1.68 | 1.48 | 0/18 |
| NISIEDYPENNFANNVA | STDCRCD | QQYFMLPLM | 0.82 / 1.43 / 1.15 / 2.06 / 1.74 / 1.82 | 1.50 | 2/18 (2.49) |
| RLSSELMAGEISYNAIA | NGKVLEY | QQYMRLPLG | 0.40 / 0.21 / 0.31 / 0.33 / 0.22 / 0.44 | 0.32 | 2/18 (3.10) |
| NFSMSAAEFVNEDSSIA | DAEISYD | QQYHRLPLV | 1.77 / ND / ND / 1.75 / 1.54 / 1.81 | 1.71 | 2/18 (3.02) |
| FFSLIQGSYGEANNSIA | ERNTKAP | QQYGRLPLV | 2.44 / 2.82 / ND / ND / 3.04 / ND | 2.77 | 0/18 |
| KISINQSNYGGMRSAIA | DTNLARM | QQYYHLPLM | ND / ND / ND / 1.76 / 2.42 / 0.79 | 1.66 | 0/18 |
| KLYERGEGSQKVDRSIA | EMSTRCE | QSYQRLPLS | 1.30 / 1.22 / 1.10 / 1.38 / 1.54 / 1.63 | 1.36 | 1/18 (2.96) |
| ALTAHRLVAIEAKNSIA | NAVMRED | QQYAQLPLM | 0.06 / -0.11 / 0.16 / -0.10 / 0.14 / 0.16 | 0.05 | 1/18 (1.51) |
| KLSWDDMSHFNTRSAVA | DMTMRAH | QQYNRLPLD | 0.05 / 0.11 / -0.15 / -0.20 / -0.16 / 0.07 | -0.05 | 1/18 (2.25) |
| KMGMAFQQDLMEEYSVA | DHMLRVT | QQYGRLPLS | ND / ND / 2.77 / ND / 3.03 / ND | 2.90 | 0/18 |
| HLLYAQNTGSLYDNNVA | EGETVLD | QQYFRLPIT | 1.26 / 1.24 / 1.59 / 1.31 / 1.33 / 1.49 | 1.37 | 1/18 (2.74) |
| FMRMECYGYQNYGNSIA | HGNIRHN | QQYSRLPFS | ND / 2.33 / 1.08 / 1.43 / 1.72 / 1.88 | 1.69 | 1/18 (1.89) |
| VMFMGLYWNNDETYAIA | DVTMREK | QQYHRLPLM | ND / ND / ND / ND / ND / ND | ND | 0/18 |
| TFNLEYMGMMEDHNSIA | ETEHKTP | QQYFRLPIS | 1.88 / 1.67 / 0.89 / 0.83 / 1.22 / 2.21 | 1.45 | 1/18 (4.23) |
| KIYQLGLGSQKIMRNIA | QTSTREL | QSYNRLPLS | 0.28 / 0.47 / 0.67 / 0.93 / 0.03 / 0.28 | 0.44 | 0/18 |
| ELRMKELGMSYNANNVA | DSENRIK | QQYYRLPLM | 1.87 / 1.06 / 2.45 / 1.85 / 1.53 / 2.20 | 1.83 | 1/18 (2.39) |
| NMQMQDDRMQNAKQNVA | GVDMREE | QQYFRLPFL | 0.55 / 0.00 / -0.24 / -0.04 / 0.02 / 0.15 | 0.07 | 0/18 |
| KLSSHEQHGTAQNSAMA | NATVSTQ | QQYSHLPLS | 1.12 / 0.81 / 0.83 / 0.82 / 1.09 / 0.95 | 0.94 | 2/18 (3.34) |
| KFNISKEGVTRYGKSIA | GAQTIDE | QQYDRLPLA | 1.65 / 1.71 / 1.06 / 1.42 / 1.73 / 1.22 | 1.46 | 0/18 |

As a blank, each scFv also met three strains without target: over all light chain designs, 4% of these pairings were detected, typically at 2.64 and seldom below 1.59. The control count says in how many pairings with the empty strains this scFv gave a signal, with their mean in brackets.
The authors averaged sequences with at least three values out of six and counted those with two or fewer as poor binders.
Values of this round are not directly comparable with the first-round values of the same sequences.

From the AlphaSeq antibody data of Li et al. 2023 (doi:10.1038/s41467-023-39022-2), copy in the FLAb collection.